Test results published in publication PMC3466219 (PLoS ONE, 2012).
Entries after “also recorded” stand apart in the source; their conditions may differ.

Tested on: acetylated tubulin in LNCaP cells
Type: cell-based

c1cc(SSc2ccns2)sn1 [NU9056, 1,2-Bis(isothiazol-5-yl)disulfane]
acetylated tubulin: decrease; also recorded: returned to basal levels; also recorded: no change
